# The entries are a selection whose mix differs from that of the whole data set. Inconclusive results are not listed. Some salts or complexes appear as unconnected parts, following the source record. Calls of active or inactive are those of the source. The call rests on the fitted dose curve; in most records, active means well fitted inhibition curve with a large enough effect; inconclusive means small, poorly fitted or top-dose-only effect, or effect the other way; inactive means flat fitted curve, though single readings scatter.
# Experiment: qHTS screen for small molecules that inhibit ELG1-dependent DNA repair in human embryonic kidney (HEK293T) cells expressing luciferase-tagged ELG1; further: nearly all actives have a fitted effect of over 55% in size
# Conditions: HEK293T ELG1-luciferase reporter, luminescence, 16 h, DNA damage induced by 5-fluorouridine; series mostly up to 46.1 µM; activity change, negative = inhibition: at the top concentration
# On the % scale 0 is the no-effect control and ±100 the full control effect; potency means the concentration at half of the fitted maximal effect.
SMILES,"activity change, negative = inhibition",Potency
O=C(NCC1(N2CCCCC2)CCCCC1)c1ccco1,inactive: 12%,–
CCN1CCC(Nc2cccc(F)c2)CC1,inactive: 1.09%,–
Cc1ccc(C(=O)NCC2(N3CCCCC3)CCCCC2)o1,inactive: 2.64%,–
Fc1ccccc1NC1CCN(Cc2ccccc2)CC1,inactive: 4.22%,–
COc1cc(OC)cc(C(=O)NCC2(N3CCCCC3)CCCCC2)c1,inactive: 4.44%,–
CN1CCC(Nc2ccc(Cl)cc2)CC1,inactive: 9.04%,–
COc1cccc(C(=O)N(c2cc(C)cc(C)c2)C2CCN(C(=O)OC(C)(C)C)CC2)c1,–,active: 18.3 µM
COc1cc(OC)cc(C(=O)NCC2(N3CCOCC3)CCCCC2)c1,inactive: 0.902%,–
CCC(CO)(C(=O)OC1CN2CCC1CC2)c1ccccc1 (stereo not given),inactive: 0.138%,–
CC(C)(C)OC(=O)N1CCC(Nc2ccccc2)CC1,inactive: -3.09%,–
O=C(O)C1(Nc2ccccc2)CCN(Cc2ccccc2)CC1,inactive: -8.33%,–
CCCOc1ccc(C(=O)NCC2(N(C)C)CCCCC2)cc1,inactive: 12%,–
CCOc1ncccc1C(=O)NCC1(N2CCOCC2)CCCCC1,inactive: -3.31%,–
CN1CCC(Nc2ccc(F)c(Cl)c2)CC1,inactive: -3.82%,–
CCc1cc(C(=O)NCC2(N3CCCCC3)CCCCC2)sc1C,inactive: 13.7%,–
O=C(OC1CN2CCC1CC2)C1c2ccccc2C=Cc2ccccc21 (stereo not given),inactive: -12.1%,–
O=C(O)c1cccc(Nc2c([N+](=O)[O-])cc([N+](=O)[O-])cc2[N+](=O)[O-])c1,inactive: 13.4%,–
CCOC(=O)N1CCC(Nc2ccc(C)cc2)CC1,inactive: -3.52%,–
N/C(=N\O)c1c(N)no[n+]1[O-],inactive: -2.39%,–
COc1ccc(C(=O)NCC2(N3CCOCC3)CCCCC2)cc1OC,inactive: 2.9%,–
COc1cc(C(=O)NCC2(N3CCOCC3)CCCCC2)cc(OC)c1C,inactive: -15.4%,–
O=C(NCC1(N2CCOCC2)CCCCC1)c1cc(Br)ccc1Cl,inactive: 12.9%,–

SMILES,"activity change, negative = inhibition",Potency
CN(C)C1(CNC(=O)c2cccc(C#N)c2)CCCCC1,inactive: 7.73%,–
c1ccc(CN2CCC(Nc3ccccc3)CC2)cc1,inactive: 4.85%,–
CCCN1CCC(Nc2cc(OC)cc(OC)c2)CC1,inactive: -6.23%,–
CCOC(=O)C(CC)C1=NC(C)(C)Cc2ccccc21.O=[N+]([O-])c1cc([N+](=O)[O-])c(O)c([N+](=O)[O-])c1 (stereo not given),inactive: -7.9%,–
CC(C)(C)OC(=O)N1CCC(N(C(=O)c2ccccc2)c2ccc(Cl)cc2)CC1,inactive: -5.04%,–
O=C(NCC1(N2CCOCC2)CCCCC1)c1cc(=O)[nH]c2ccccc12,inactive: -1.57%,–
COc1cc(C(=O)NCC2(N3CCCCC3)CCCCC2)ccc1OC(F)F,inactive: -13.7%,–
COc1ccc(NC2CCN(C(=O)OC(C)(C)C)CC2)cc1,inactive: -1.92%,–
CN1CCN(CCOC(=O)C(O)(c2ccccc2)c2ccccc2)CC1,inactive: -7.59%,–
O=C(NCC1(N2CCCCC2)CCCCC1)c1cccc(C(F)(F)F)c1,inactive: 18.3%,–
CCN1CCC(Nc2ccc(Cl)cc2)CC1,inactive: -0.45%,–
CSc1ccc(C(=O)NCC2(N3CCOCC3)CCCCC2)cc1,inactive: 10.4%,–
O=C(NCC1(N2CCCCC2)CCCCC1)c1cccc([N+](=O)[O-])c1,inactive: 2.59%,–
O=C(NCC1(N2CCCCC2)CCCCC1)c1ccc(OC(F)F)cc1,inactive: 18.4%,–
CCCOc1ccc(C(=O)NCC2(N(C)C)CCCCC2)cc1OC,inactive: 9.77%,–
O=C(OC1CN2CCC1CC2)c1ccc([N+](=O)[O-])cc1 (stereo not given),inactive: -0.21%,–
COc1ccc2c(c1O)-c1c(O)c(OC)cc3c1[C@H](C2)[N+](C)(C)CC3.O=[N+]([O-])c1cc([N+](=O)[O-])c([O-])c([N+](=O)[O-])c1[O-],inactive: 14%,–
O=C(NCC1(N2CCCCC2)CCCCC1)c1cncc(Br)c1,inactive: 0%,–
CC(C)c1ccc(NC2CCN(C(=O)OC(C)(C)C)CC2)cc1,inactive: -1.93%,–
COc1ccc(CN(CCCl)CCCl)cc1Cl,inactive: 2.53%,–
CN(C)c1cccc(C(=O)NCC2(N3CCCCC3)CCCCC2)c1,inactive: 25.7%,–
O=[N+]([O-])c1cc([N+](=O)[O-])c(OC2CCCCC2O)c([N+](=O)[O-])c1 (stereo not given),inactive: -6%,–

SMILES,"activity change, negative = inhibition",Potency
N#CC1(Nc2ccccc2)CCN(Cc2ccccc2)CC1,inactive: -15.7%,–
O=C(NCC1(N2CCCCC2)CCCCC1)c1ccc(Cl)s1,inactive: 8.35%,–
O=C(OC1CN2CCC1CC2)C1c2ccccc2Oc2ccccc21 (stereo not given),inactive: 8.04%,–
COc1ccc(Cl)cc1C(=O)NCC1(N2CCOCC2)CCCCC1,inactive: -13.8%,–
CCOC(=O)N1CCC(Nc2ccc(OC)cc2)CC1,inactive: -8.38%,–
O=C(NCC1(N2CCCCC2)CCCCC1)c1ccc(Cl)nc1,inactive: 14%,–
Cc1cc(C)cc(N(C(=O)c2ccccc2)C2CCN(C(=O)OC(C)(C)C)CC2)c1,inactive: -10.4%,–
O=C(NCC1(N2CCOCC2)CCCCC1)c1cc2ccccc2o1,inactive: -4.75%,–
CSc1ccccc1C(=O)NCC1(N2CCCCC2)CCCCC1,inactive: 4.85%,–
COc1ccc(C(=O)NCC2(N3CCCCC3)CCCCC2)cc1,inactive: 3.23%,–
CC(C)(C)OC(=O)N1CCC(N(C(=O)c2ccccc2)c2ccc(F)cc2)CC1,inactive: -1.48%,–
COc1ccc(C(=O)NCC2(N3CCCCC3)CCCCC2)c(OC)c1OC,inactive: 8.14%,–
O=C(NCC1(N2CCCCC2)CCCCC1)c1ccc(=O)[nH]c1,inactive: 5.49%,–
O=C(NCC1(N2CCCCC2)CCCCC1)c1cccs1,inactive: 12.2%,–
CCOC(=O)N1CCC(Nc2cccc(C)c2)CC1,inactive: 0.297%,–
COc1cc(C(=O)NCC2(N(C)C)CCCCC2)ccc1OC(F)F,inactive: 8.43%,–
Cc1ccc(OCC(C)C)c(CN(CCCl)CCCl)c1,inactive: -28%,–
CCCCOc1ccc(C(=O)NCC2(N3CCOCC3)CCCCC2)cc1,inactive: 0.817%,–
CCOC(=O)N1CCC(Nc2ccc(F)cc2)CC1,inactive: -1.35%,–
COc1ccc(NC2CCN(CCc3ccccc3)CC2)c(OC)c1,inactive: -5.51%,–
CCOc1ccc(C)cc1CN(CCCl)CCCl,inactive: -18.1%,–

# From PubChem BioAssay AID504467 (National Center for Advancing Translational Sciences (NCATS), 2011)
